Earlier results, collected in patent US7432414B2, “Transgenic mouse having an amyloid precursor protein with a modified beta secretase cleavage site” (Merck & Co., Inc., priority 2004, dated 2008).

Amino acid sequences for entries named in this document (tags omitted). Residues count along the entry.
UniProt P56817, 46-501: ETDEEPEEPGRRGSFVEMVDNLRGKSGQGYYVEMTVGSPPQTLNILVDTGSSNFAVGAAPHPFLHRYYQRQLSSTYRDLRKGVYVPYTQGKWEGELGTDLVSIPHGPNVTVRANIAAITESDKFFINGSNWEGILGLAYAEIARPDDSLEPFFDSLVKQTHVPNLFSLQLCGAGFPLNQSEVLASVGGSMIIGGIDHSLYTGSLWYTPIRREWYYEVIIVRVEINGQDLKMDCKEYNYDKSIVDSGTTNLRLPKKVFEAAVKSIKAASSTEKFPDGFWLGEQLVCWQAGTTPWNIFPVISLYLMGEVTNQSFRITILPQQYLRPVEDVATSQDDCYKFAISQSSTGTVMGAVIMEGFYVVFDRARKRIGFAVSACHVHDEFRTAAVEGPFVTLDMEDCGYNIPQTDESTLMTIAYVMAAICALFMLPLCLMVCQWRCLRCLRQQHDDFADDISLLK

Biological target: T1, recombinant β secretase produced in E. coli (Homo sapiens, UniProt P56817)
T1 construct: host or cells: E. coli
Conditions: Ghosh et al., 2000, J. Am. Chem. Soc. 122:3522-3523, read-out: Ki towards recombinant β secretase

- Ki: 96 ± 3 nM
Substance: modified peptide β secretase inhibitor, structure EVNL*AAEF (SEQ ID NO: 3), L*A = uncleavable hydroxyethylene transition-state isostere of the LA peptide bond [OM99-2]
